This is an account of results in US20260092057A1, “BCL-XL/BCL-2 DEGRADERS AND USES THEREOF” (Kymera Therapeutics, Inc., priority 2022, published 2026).

By UniProt entry, the sequences of proteins in these tests, tags left out.
UniProt Q07817, whole entry: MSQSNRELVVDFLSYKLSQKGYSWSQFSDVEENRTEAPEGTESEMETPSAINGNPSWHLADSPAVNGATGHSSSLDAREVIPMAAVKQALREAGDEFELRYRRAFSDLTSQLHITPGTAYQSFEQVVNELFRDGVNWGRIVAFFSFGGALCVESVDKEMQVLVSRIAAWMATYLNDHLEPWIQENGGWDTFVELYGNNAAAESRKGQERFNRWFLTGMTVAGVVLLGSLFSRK

Each structure is given as a SMILES string.

For one assay, the target named is BCL-XL (Homo sapiens, UniProt Q07817). Put plainly: BCL-XL degradation assay in MOLT-4 cells (ELISA, 6 h). The conditions noted are these: for DC50: read-out: Bcl-xL ELISA in MOLT-4 degradation 6 h: External Abs-DC50. A general note: In an ELISA, binding on a coated surface is turned into a signal by an enzyme label.
The next assay concerns MOLT-4 cells. Put plainly: CTG (CellTiter-Glo) cell viability assay, MOLT-4. The conditions noted are these: read-out: CTG Cell Viability Assay - MOLT-4 3 day: Average external-IC50. Here is the method: (§1) Compound-mediated viability effect on MOLT-4 and Caki-2 was quantitatively determined using the CellTiter-Glo® Luminescent Cell Viability Assay kit from Promega (Catalog number G7570) following manufacturer's recommended procedures. Briefly, MOLT-4 and Caki-2 cells were seeded into 384 well plates (Grenier Bio-One, Catalog number 781080) with a density of 10,000 cells per well. Compounds were then added to the assay plate with final top concentration of 10 µM and 1:3 dilution series with total of 9 doses. The final DMSO concentration is normalized to 0.2%. The assay plates were incubated at 37° C. for 3 days under 5% CO2. Then the assay plate was equilibrated at room temperature for 10 minutes. To determine cell viability, 30 uL CellTiter Glo reagent was added to each well and the assay plate was centrifuged at 1000 rpm for 30 second, incubated at room temperature for 10 min, and analyzed by detecting the luminescence using a multimode plate reader (EnVision 2105, PerkinElmer). The data was then analyzed by software Prism 7.0 from GraphPad and the dose response curves are fit using a three-parameter logistic equation to calculate IC50.
(§2) The letter codes for MOLT-4 IC50 include: A (<0.1 μM); B (0.1-1.0 μM); C (>1.0-3.0 μM); and D (>3.0 μM). The letter codes for Caki-2 IC50 include: A (<5 μM); B (5-10 μM); C (>10-30.0 μM); and D (>30.0 μM).
A general note: In ATP-based viability assays light output follows the ATP content of the culture.

The subject of another assay is Caki-2 cells. In words: CTG (CellTiter-Glo) cell viability assay, Caki-2. To be noted: read-out: CTG Chempartner/PHA- Caki-2 3-day: Average external-IC50. How it is done: as §1, §2

As for `Cc1ncsc1-c1ccc([C@H](C)NC(=O)[C@@H]2C[C@@H](O)CN2C(=O)[C@@H](NC(=O)CCCCCCN2CCN(C(=O)c3ccc(-c4ccc(Cl)cc4)c(CN4CCN(c5ccc(C(=O)NS(=O)(=O)c6ccc(N[C@H](CCN(C)C)CSc7ccccc7)c([N+](=O)[O-])c6)cc5)CC4)c3)CC2)C(C)(C)C)cc1`, at BCL-XL, the “Bcl-xL ELISA in MOLT-4 degradation 6 h: Dmax %” value (“Bcl-xL ELISA … Dmax %” for short) was “C (C (<50%))” and the DC50 was in the range of 0.5 to 1 µM. Moreover, the IC50 with MOLT-4 cells was greater than 3 µM. Further, the IC50 in the assay with Caki-2 cells is greater than 30 µM.
Take `Cc1ncsc1-c1ccc([C@H](C)NC(=O)[C@@H]2C[C@@H](O)CN2C(=O)[C@@H](NC(=O)CCCCCCC(=O)N2CCN(CC[C@H](CSc3ccccc3)Nc3ccc(S(=O)(=O)NC(=O)c4ccc(N5CCN(Cc6ccccc6-c6ccc(Cl)cc6)CC5)cc4)cc3[N+](=O)[O-])CC2)C(C)(C)C)cc1`: on BCL-XL, the “Bcl-xL ELISA … Dmax %” value is reported as “C (C (<50%))” and the DC50 lay in the range of 0.5 to 1 µM. Besides, in the assay with MOLT-4 cells, the IC50 was greater than 3 µM. For the same molecule, in the assay on Caki-2 cells, the IC50 was greater than 30 µM.
On to `Cc1ncsc1-c1ccc([C@H](C)NC(=O)[C@@H]2C[C@@H](O)CN2C(=O)[C@@H](NC(=O)CCCCCCC(=O)Nc2ccc(-c3ccc(Cl)cc3)c(CN3CCN(c4ccc(C(=O)NS(=O)(=O)c5ccc(N[C@H](CCN(C)C)CSc6ccccc6)c([N+](=O)[O-])c5)cc4)CC3)c2)C(C)(C)C)cc1`, for which, at BCL-XL, the “Bcl-xL ELISA … Dmax %” value is “B (B (50 to 75%))”. The 50% degradation concentration (DC50) at BCL-XL was 0.5 to 1 µM. The IC50 in the assay with MOLT-4 cells is greater than 3 µM; in the assay on Caki-2 cells, greater than 30 µM.
The matching figures for `Cc1ncsc1-c1ccc([C@H](C)NC(=O)[C@@H]2C[C@@H](O)CN2C(=O)[C@@H](NC(=O)CCCCCCCN2CCN(CCCNc3ccc(S(=O)(=O)NC(=O)c4ccc(N5CCN(CC6=C(c7ccc(Cl)cc7)CC(C)(C)CC6)CC5)cc4Oc4cnc5[nH]ccc5c4)cc3S(=O)(=O)C(F)(F)F)CC2)C(C)(C)C)cc1`: “B (B (50 to 75%))”, 0.01 to 0.1 µM, 0.1 to 1 µM and greater than 30 µM.

The DC50 is the concentration at which degradation of the target reaches its halfway point.
